Source: the NIST ThermoML archive (doi:10.1021/acs.jced.7b00945)

Assay: refractive index (Na D-line) (dimensionless); wn = mass fraction of the nth substance listed
Conditions: 303 K, 100 kPa, Liquid, Standard Abbe refractometry

OCCOCCOCCOCCO [tetraethylene glycol] + O
Conditions	refractive index
w2 = 0.1	1.44579
w2 = 0.21	1.43414
w2 = 0.3	1.42239
w2 = 0.4	1.40949
w2 = 0.5	1.39626
w2 = 0.6	1.38394
w2 = 0.7	1.3693
w2 = 0.79	1.35757
w2 = 0.89	1.34468
